The source of these data is patent publication US20030171276A1, “Preventives and remedies for chronic hepatitis” (priority 1999, published 2003).

Protein sequences, listed by entry. Tags and fused reporters are not part of them. Residues count along the entry.
UniProt P27958, 384-746: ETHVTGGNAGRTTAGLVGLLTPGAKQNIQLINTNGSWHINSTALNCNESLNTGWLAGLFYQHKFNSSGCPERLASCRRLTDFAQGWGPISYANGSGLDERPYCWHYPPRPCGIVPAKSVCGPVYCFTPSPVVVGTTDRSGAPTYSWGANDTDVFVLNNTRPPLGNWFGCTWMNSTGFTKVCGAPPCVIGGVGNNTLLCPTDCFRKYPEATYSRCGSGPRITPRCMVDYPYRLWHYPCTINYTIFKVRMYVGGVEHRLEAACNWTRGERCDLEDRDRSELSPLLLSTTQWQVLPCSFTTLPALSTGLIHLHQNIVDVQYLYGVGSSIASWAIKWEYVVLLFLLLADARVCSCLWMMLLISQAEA

In one test the test system is Sindbis virus. Nature of the test: Anti-virus activity, Sindbis virus-FL cells, Crystal Violet method. Conditions: culture supernatant of COS-1 cells three days after transfection; FIG. 18 and 19. It is filed as cell-based. How it is done: The anti-virus activities of IFN-α2b and HCV-binding type IFNs which had been prepared from transiently expressed in COS-1 cells were assayed by an assay system using the system for evaluating Sindbis virus-FL cells. Each of 200 IU/mL human interferon α2b (INTRON A, manufactured by Sherring-Plough/YAMANOUCHI PHARMACEUTICAL CO., LTD.) or the culture supernatants of COS-1 cells resulting from transient expression of IFN-α2b and HCV-binding type IFNs was two-fold serial dilution with a medium containing fetal bovine serum where 1000-fold dilution was regarded as a dilution fold 1. The resulting dilution was cultured together with the FL cells.
On the next day, Sindbis virus was added to the resulting culture, and the mixture was cultured for 2 days. Thereafter, the absorbance of the resulting culture at 595 nm was determined by Crystal Violet method. The determination was taken at n=2. In addition, at the same time, the FL cells alone were cultured as cell control, and the untreated FL cells added with Sindbis virus were cultured as virus control.

Test [1] addresses T1, baculovirus-derived recombinant GST-fusion HCV E2 protein (GST-E2) (Hepatitis C virus genotype 1a, UniProt P27958).
T1 construct: purchased Immuno Diagnostics; host or cells: baculovirus expression system
Nature of the test: Coprecipitation with GST-E2 using Glutathione beads, Western blot with anti-IFN-α antibody. Type of test: binding. Conditions: culture supernatant of COS-1 cells, 4° C.; FIG. 20. How it is done:
There was evaluated the binding of IFN-α2b or HCV-binding type IFNs which had been transiently expressed in COS-1 cells to the baculovirus-derived recombinant GST-fusion HCV E2 protein (hereinafter referred to as GST-E2; manufactured by Immuno Diagnostics) by coprecipitation using Glutathione beads. Five microliters of GST-E2 (1 μg/μl) was mixed with 400 μl of the culture supernatant of COS-1 cells containing transiently expressed IFN-α2b or HCV-binding type IFNs, and were incubated at 4° C. for 1 hour. Glutathione Sepharose 4B (Amersham Pharmacia) which had been incubated in buffer TBS-X [composition: 50 mM Tris-HCl (pH 7.5), 150 mM NaCl, 0.1% Triton X-100] containing 3% BSA for 30 minutes was added to a mixture of the culture supernatant of COS-1 cells and GST-E2, and the aliquots were incubated overnight at 4° C. After centrifugation, the supernatants (non-binding fraction) were collected, and the precipitated Glutathione beads were washed five times with the above-mentioned TBS-X. A 2× sample buffer was added to a bound fraction Glutathione beads, and the aliquots were treated at 100° C. for 5 minutes. Thereafter, the supernatants obtained by centrifugation were subjected to Western blot analysis using an anti-IFN-α antibody. Similarly, the supernatants of the non-binding fraction were subjected to Western blot analysis. […]
Background: Immunoblotting shows a protein as a band on a membrane.

Regarding “IFN-α2b: human interferon-α2b transiently expressed in COS-1 cells from vector pCIA”, the anti-virus activity entry with Sindbis virus is “have the anti-virus activity”. For the same substance, the “binding to GST-E2 (coprecipitation)” value in test [1] is listed as “does not bind to GST-E2”.
